The chains behind the UniProt entries cited, without tags or fusion partners.
UniProt Q00987, whole entry: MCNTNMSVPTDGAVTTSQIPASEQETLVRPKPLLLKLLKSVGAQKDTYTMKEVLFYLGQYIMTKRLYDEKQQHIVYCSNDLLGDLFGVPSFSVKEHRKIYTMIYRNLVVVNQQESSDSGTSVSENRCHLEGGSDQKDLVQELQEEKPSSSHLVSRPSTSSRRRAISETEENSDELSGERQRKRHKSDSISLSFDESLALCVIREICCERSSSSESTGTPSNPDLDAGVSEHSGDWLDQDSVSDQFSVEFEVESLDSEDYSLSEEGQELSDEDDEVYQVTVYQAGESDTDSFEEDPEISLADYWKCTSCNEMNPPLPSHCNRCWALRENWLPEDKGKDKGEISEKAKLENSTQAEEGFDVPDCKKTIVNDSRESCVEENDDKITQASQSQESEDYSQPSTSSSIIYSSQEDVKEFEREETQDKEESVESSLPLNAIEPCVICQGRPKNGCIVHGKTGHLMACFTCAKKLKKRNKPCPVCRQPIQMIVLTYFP

In patent US7659277B2, “Ubiquitin ligase inhibitors and methods related thereto” (Proteologies, Ltd., priority 2003, dated 2010):

Tests used:
Assay type in all cases: biochemical
[1] = biological target: c-cbl (Homo sapiens, UniProt P22681); assay: Selectivity (% A in 1 μM), ubiquitin ligase activity of c-cbl; conditions: read-out: Selectivity (% A* in 1 μM) c-cbl
[2] = test system: E2 protein; conditions: % activity at 1 μM compound; control is related to 100% activity; HTS protocol
[3] = biological target: Hmdm2 (Homo sapiens, UniProt Q00987); assay: Selectivity (% A in 1 μM), ubiquitin ligase activity of Hmdm2; conditions: read-out: Selectivity (% A* in 1 μM) Hmdm2

SMILES | remaining activity at 1 µM [1] | Selectivity (% A* in 1 μM) E2 [2] | remaining activity at 1 µM [3]
O=C1C(=Cc2ccco2)C(=O)N(c2ccccc2)C(=S)N1c1ccccc1 [Compound 13] | 75% | 54% | –
O=[N+]([O-])c1ccc(CN2CCN(c3cccc(Cl)c3)CC2)o1 [Compound 80] | 100% | 61% | –
Cc1ccc2nsnc2c1/N=C/c1c(O)ccc2ccccc12 [Compound 53] | 134% | 99% | –
O=c1nc(-c2ccc(Br)cc2)cc(-c2ccc([N+](=O)[O-])cc2)[nH]1 [Compound 84] | 97% | 54% | –
CN(C)c1ccc(/C=C2/C(=O)NC(=O)N(C3CCCCC3)C2=O)cc1 [Compound 3] | 82% | 52% | –
CN(C)c1ccc(/C=C2\SC(=S)N(C3CCS(=O)(=O)C3)C2=O)cc1 (centres unmarked) [Compound 110] | 107% | 56% | –
O=C1NC(=O)N(c2ccccc2)C(=O)/C1=C\c1ccc2c(c1)OCO2 [Compound 4] | 85% | 63% | –
C=CCN1C(=O)/C(=C/c2c3ccccc3cc3ccccc23)SC1=S [Compound 109] | 122% | 113% | –
COc1ccc(N2C(=O)NC(=O)/C(=C\C=C\c3ccccc3)C2=O)cc1 [Compound 8] | 97% | 87% | –
Cc1ccc(/N=C/c2cc(Br)cc(Br)c2O)c(C)c1 [Compound 54] | 135% | 44% | –
O=C(O)c1ccc(-c2ccc(/C=c3\sc4nc5ccccc5n4c3=O)o2)cc1 [Compound 28] | 111% | 105% | –
Cc1cc(O)c(C(=O)/C=C/c2cccc(I)c2)c(=O)o1 [Compound 87] | 63% | 80% | –
O=C(O)COc1ccc2c(c1)oc(=O)c1ccccc12 [Compound 85] | 88% | 55% | –
O=c1/c(=C/c2ccc(N3CCOCC3)cc2)sc2nc3ccccc3n12 [Compound 32] | 122% | 96% | –
O=C1C=CC(=O)N1c1ccccc1Cl [Compound 18] | 105% | 75% | –
COc1ccc(N2C(=O)NC(=O)/C(=C\c3ccc(Cl)cc3)C2=O)cc1 [Compound 7] | 88% | 84% | –
CN(C)c1ccc(/C=C2\C(=O)N(c3ccc([N+](=O)[O-])cc3)N=C2N2CCOCC2)cc1 [Compound 42] | 314% | 57% | –
CC(C)(C)c1ccc(O)c(/N=C/C=C/c2cccc([N+](=O)[O-])c2)c1 [Compound 59] | 115% | 90% | –
Cc1c(C(=O)/C=C/c2ccccc2)c2cc(O)ccc2n1C [Compound 75] | 110% | 77% | –
OCc1cccc(/N=C/c2cccc(O)c2O)c1 [Compound 57] | 153% | 259% | –
O=C1C=CC(=O)N1c1ccc(OC(F)(F)C(F)F)c(N2C(=O)C=CC2=O)c1 [Compound 20] | 112% | 83% | –
C=CCN1C(=O)NC(=O)/C(=C/c2ccc(F)cc2)C1=O [Compound 12] | 102% | 90% | –
O=C1C=CC(=O)N1c1ccc(Cl)cc1 [Compound 19] | 107% | 78% | –
O=C1c2ccccc2-c2nc3nonc3nc21 [Compound 91] | 151% | 80% | –
COc1cc(C=C2C(=O)N(C)C(=S)N(C)C2=O)ccc1O [Compound 9] | 88% | 79% | –

SMILES | remaining activity at 1 µM [1] | Selectivity (% A* in 1 μM) E2 [2] | remaining activity at 1 µM [3]
O=C1C(=Cc2ccc(-c3ccc(Br)cc3)o2)C(=O)c2ccccc21 [Compound 38] | 432% | 89% | –
COc1ccc(/C=C2\C(=O)NC(=S)N(c3ccccc3)C2=O)cc1 [Compound 11] | 95% | 79% | –
O=C1NC(=O)/C(=C\c2ccc(-c3ccc(F)cc3)o2)S1 [Compound 108] | 135% | 104% | –
O=C1NC(=S)N(c2ccccc2)C(=O)/C1=C\c1c(Cl)cccc1Cl [Compound 6] | 116% | 60% | –
O=C(NC(C(Cl)(Cl)Cl)S(=O)(=O)c1ccccc1)c1ccc(Cl)cc1Cl (centres unmarked) [Compound 88] | 112% | 94% | –
CCCCCCOc1ccc(C=C2C(=O)NC(=S)NC2=O)cc1 [Compound 15] | 106% | 64% | –
C=CCN1C(=O)NC(=O)/C(=C\c2ccccc2)C1=O [Compound 2] | 90% | 60% | –
N=C1NC(=O)/C(=C\c2ccc(-c3ccc(I)cc3)o2)S1 [Compound 29] | 159% | 50% | –
COc1cc(N/C=C2/C(=O)NC(=S)N(c3cccc(C)c3)C2=O)cc(OC)c1 [Compound 16] | 166% | 109% | –
COc1ccccc1N1C(=O)NC(=O)/C(=C\C=C\c2ccccc2)C1=O [Compound 10] | 97% | 93% | –
O=C1NC(=O)C(=Cc2ccc(-c3cc(Cl)ccc3Cl)o2)C(=O)N1 [Compound 1] | 120% | 100% | –
S=C(c1ccc(-c2cc(Cl)ccc2Cl)o1)N1CCCCC1 [Compound 35] | 106% | 118% | –
CCCCOc1ccc(NC(=S)N2CCn3c4c(c(=O)c5cc(C)ccc53)CCC42)cc1 (centres unmarked) [Compound 81] | 66% | 80% | –
O=c1oc2ccccc2c(O)c1C(=S)Nc1ccccc1 [Compound 96] | 363% | 73% | –
COc1ccc(NC(=O)c2cc3cccc(N)c3cc2O)cc1 [Compound 114] | 96% | 95% | –
O=C1NC(=O)N(c2ccc(Br)cc2)C(=O)/C1=C/c1ccc(O)cc1 [Compound 5] | 84% | 74% | –
O=C(Nc1cccc2c(NC(=O)C3C4CCCCC43)cccc12)C1C2CCCCC21 (centres unmarked) [Compound 97] | 148% | 89% | –
Cc1cc([N+](=O)[O-])ccc1/N=C/c1ccc[nH]1 [Compound 70] | 127% | 98% | –
Cc1c(C(=O)/C=C/c2cccs2)c2cc(O)ccc2n1C [Compound 76] | 96% | 53% | –
COc1ccc(/C=N/c2ccc(Nc3ccccc3)cc2)c2ccccc12 [Compound 55] | 70% | 31% | –
Cc1ccc(/N=C/c2cccc(O)c2O)cc1C [Compound 56] | 277% | 88% | –
COc1ccc(CC(C)NCc2ccccc2Cl)cc1 (centres unmarked) [Compound 107] | 101% | 384% | –
Cc1cc(OC(=O)Cn2c(=O)sc3ccccc32)ccc1Cl [Compound 103] | 89% | 92% | –
O=C1S/C(=C/c2ccc(-c3ccc([N+](=O)[O-])cc3Cl)o2)C(=O)N1c1ccccc1 [Compound 27] | 122% | 112% | 122%
CN1C(=O)/C(=C\c2ccc(-c3cccc([N+](=O)[O-])c3)o2)SC1=S [Compound 115] | 98% | 87% | –
